Assay results taken from paper PMC9363231, “High‐resolution analysis of individual spike peptide‐specific CD4 ^+ T‐cell responses in vaccine recipients and COVID‐19 patients” (Clinical & Translational Immunology, 2022).

Chains of the proteins cited; added tags and fusions are not shown. Residues count along the entry.
UniProt P01903, 26-254: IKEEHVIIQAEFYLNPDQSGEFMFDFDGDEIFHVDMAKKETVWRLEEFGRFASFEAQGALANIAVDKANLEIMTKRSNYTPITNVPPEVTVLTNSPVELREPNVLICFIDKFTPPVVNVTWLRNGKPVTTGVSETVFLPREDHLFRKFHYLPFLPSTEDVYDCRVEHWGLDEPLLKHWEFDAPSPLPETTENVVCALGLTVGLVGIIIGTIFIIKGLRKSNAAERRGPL
UniProt P01911, 30-266: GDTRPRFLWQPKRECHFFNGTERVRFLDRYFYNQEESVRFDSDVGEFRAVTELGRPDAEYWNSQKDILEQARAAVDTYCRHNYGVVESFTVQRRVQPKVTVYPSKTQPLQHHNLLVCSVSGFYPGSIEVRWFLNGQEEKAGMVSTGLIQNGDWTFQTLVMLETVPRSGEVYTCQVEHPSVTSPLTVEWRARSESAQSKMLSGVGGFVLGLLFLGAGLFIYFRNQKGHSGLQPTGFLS

Target: HLA-DRB1*15:01 (Homo sapiens, UniProt P01903+P01911)
Assay: biochemical
Assay type: binding

CC[C@H](C)[C@H](NC(=O)[C@H](CCCNC(=N)N)NC(=O)[C@H](CCCCN)NC(=O)[C@H](CCCNC(=N)N)NC(=O)[C@H](CC(N)=O)NC(=O)[C@H](Cc1c[nH]c2ccccc12)NC(=O)[C@H](C)NC(=O)[C@@H](N)Cc1ccc(O)cc1)C(=O)N[C@@H](CO)C(=O)N[C@@H](CC(N)=O)C(=O)N[C@@H](CS)C(=O)N[C@H](C(=O)N[C@@H](C)C(=O)N[C@@H](CC(=O)O)C(=O)N[C@@H](Cc1ccc(O)cc1)C(=O)O)C(C)C [compound 71]
IC50: 851 nM
